Assay results: patent publication US8410112B2, “Compounds useful as inhibitors of ATR kinase” (Vertex Pharmaceuticals Incorporated, priority 2008, dated 2013)

Sequences of proteins named here, by UniProt entry; tags and fusion partners are left off.
UniProt Q13535, whole entry: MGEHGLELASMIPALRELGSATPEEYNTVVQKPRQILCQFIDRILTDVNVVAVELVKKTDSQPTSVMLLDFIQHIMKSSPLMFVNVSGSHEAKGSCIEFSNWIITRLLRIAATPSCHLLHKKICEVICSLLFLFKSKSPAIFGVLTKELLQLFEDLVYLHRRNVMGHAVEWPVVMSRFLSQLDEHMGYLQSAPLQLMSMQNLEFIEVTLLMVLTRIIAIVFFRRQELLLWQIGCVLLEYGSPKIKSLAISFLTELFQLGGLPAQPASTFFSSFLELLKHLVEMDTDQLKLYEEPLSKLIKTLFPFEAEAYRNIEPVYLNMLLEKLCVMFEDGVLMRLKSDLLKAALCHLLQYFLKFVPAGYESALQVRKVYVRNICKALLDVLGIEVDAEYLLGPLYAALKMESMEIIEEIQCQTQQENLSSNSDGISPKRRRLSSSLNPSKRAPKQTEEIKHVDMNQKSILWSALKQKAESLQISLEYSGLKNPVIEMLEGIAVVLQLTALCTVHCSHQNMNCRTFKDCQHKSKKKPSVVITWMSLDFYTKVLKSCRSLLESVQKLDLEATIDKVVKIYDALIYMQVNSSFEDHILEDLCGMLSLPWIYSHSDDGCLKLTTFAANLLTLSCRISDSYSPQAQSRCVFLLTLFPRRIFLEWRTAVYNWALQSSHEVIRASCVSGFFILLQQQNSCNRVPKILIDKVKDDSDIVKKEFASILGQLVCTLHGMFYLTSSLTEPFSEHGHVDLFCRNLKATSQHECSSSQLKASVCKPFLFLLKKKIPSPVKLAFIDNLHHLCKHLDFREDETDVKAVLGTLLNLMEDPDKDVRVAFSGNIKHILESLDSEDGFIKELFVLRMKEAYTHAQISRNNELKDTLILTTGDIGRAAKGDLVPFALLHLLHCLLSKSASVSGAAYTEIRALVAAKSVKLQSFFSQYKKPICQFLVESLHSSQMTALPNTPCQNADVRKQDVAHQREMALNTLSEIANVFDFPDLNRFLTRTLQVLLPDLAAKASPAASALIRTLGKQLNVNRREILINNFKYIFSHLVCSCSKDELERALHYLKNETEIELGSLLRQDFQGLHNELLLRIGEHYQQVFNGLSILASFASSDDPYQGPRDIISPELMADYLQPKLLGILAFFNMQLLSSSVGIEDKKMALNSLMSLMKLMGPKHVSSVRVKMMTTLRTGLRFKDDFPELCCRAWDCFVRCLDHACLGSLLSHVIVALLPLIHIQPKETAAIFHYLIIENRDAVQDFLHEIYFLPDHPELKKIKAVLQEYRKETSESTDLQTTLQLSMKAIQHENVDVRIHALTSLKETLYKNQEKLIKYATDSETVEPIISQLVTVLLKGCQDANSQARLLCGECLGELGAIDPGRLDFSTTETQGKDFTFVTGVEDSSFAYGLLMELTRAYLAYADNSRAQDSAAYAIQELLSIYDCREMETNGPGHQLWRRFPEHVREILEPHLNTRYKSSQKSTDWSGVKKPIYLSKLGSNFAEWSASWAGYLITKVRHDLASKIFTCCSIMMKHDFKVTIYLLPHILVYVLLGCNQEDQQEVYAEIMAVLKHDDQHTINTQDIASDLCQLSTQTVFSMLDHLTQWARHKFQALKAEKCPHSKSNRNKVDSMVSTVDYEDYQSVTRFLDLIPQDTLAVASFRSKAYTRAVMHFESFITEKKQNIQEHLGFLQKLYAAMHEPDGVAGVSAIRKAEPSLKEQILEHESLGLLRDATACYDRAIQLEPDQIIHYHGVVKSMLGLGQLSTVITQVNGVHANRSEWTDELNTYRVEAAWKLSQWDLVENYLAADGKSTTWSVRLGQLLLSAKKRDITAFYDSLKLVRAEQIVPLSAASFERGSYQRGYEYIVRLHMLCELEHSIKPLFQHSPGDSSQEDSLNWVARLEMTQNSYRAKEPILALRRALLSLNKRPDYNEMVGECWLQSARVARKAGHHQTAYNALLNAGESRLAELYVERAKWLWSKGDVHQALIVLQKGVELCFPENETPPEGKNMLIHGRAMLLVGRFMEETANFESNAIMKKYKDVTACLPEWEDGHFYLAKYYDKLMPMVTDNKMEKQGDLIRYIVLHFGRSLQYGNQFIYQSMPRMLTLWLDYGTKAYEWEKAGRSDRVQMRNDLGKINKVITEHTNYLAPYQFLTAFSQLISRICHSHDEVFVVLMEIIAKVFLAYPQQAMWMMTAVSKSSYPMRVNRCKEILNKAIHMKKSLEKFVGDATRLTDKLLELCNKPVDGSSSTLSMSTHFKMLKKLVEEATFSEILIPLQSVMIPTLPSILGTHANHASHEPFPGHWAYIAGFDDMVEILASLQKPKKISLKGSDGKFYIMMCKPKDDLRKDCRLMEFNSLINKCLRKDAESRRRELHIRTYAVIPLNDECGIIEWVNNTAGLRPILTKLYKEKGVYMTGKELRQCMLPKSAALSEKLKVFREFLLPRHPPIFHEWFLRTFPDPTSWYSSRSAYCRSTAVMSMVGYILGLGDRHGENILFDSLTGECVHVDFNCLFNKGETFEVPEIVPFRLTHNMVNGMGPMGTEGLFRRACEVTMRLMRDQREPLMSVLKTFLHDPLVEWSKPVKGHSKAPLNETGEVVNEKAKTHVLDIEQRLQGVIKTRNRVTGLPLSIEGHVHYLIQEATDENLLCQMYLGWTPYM

Target: full-length ATR (Homo sapiens, UniProt Q13535)
Assay: ATR Inhibition Assay (radioactive-phosphate incorporation)
Details: read-out: ATR Ki; Ki(app); 5 nM full-length ATR, 10 μM ATP, 800 μM target peptide, 25° C.

SMILES	Ki [µM]
Nc1ncc(N2CCN(C(=O)OCc3ccccc3)CC2)nc1-c1nc2ccccc2[nH]1	1 to 10
Nc1ncc(N2CCN(C(=O)c3ccccc3)CC2)nc1-c1nnc(-c2ccccc2)o1	0.1 to 1
